Measured values reported in paper PMC11653428, “5‐methyl‐2‐carboxamidepyrrole‐based novel dual mPGES‐1/sEH inhibitors as promising anticancer candidates” (Archiv Der Pharmazie, 2024).

Target: T1, mPGES-1 (Homo sapiens, UniProt O14684)
T1 construct: endogenous in cells; host or cells: A549 cells stimulated with IL-1β; microsomal fraction
T1 sequence (O14684 1-152): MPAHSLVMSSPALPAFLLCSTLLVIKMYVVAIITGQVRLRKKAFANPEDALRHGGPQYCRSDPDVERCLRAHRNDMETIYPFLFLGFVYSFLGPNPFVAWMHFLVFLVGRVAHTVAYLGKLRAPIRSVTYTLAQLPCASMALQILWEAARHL
Test: Cell-free mPGES-1 activity assay (microsomes of IL-1β-stimulated A549 cells, PGE2 formation by RP-HPLC)
Type: biochemical
Conditions: compound at 10 μM; percentage of vehicle control (DMSO) = 100%, n = 3
Procedure: Compounds 1a–f and 2a–d were submitted to a cell‐free assay mPGES‐1^[ [52] ^] to validate the inhibitory activity predicted in silico. All the compounds were screened at two different concentrations (10 and 1 µM), with the aim of identifying the candidates able to induce a significant inhibition of PGE2 formation. […] Also, compound 1b led to ~55% residual mPGES‐1 activity at 10 µM. Unfortunately, compound 1d could not be analyzed due to unspecific interference of the compound with the assay.
Microsomes of A549 cells containing mPGES‐1 were used as enzyme sources. In brief, A549 cells were stimulated with interleukin‐1β (IL‐1β) (2 ng/mL) for 48 h, harvested, and sonicated. The lysate was first centrifugated at 10,000g (10 min), and then at 174,000g for (1 h) at 4°C. The pellet (microsomal fraction) was resuspended in 1 ml homogenization buffer (0.1 M potassium phosphate buffer, pH = 7.4, 1 mM phenylmethanesulfonyl fluoride, 60 µg/mL soybean trypsin inhibitor, 1 µg/mL leupeptin, 2.5 mM GSH, and 250 mM sucrose), the total protein concentration was determined, and microsomes were diluted in potassium phosphate buffer (0.1 M, pH 7.4) containing GSH (2.5 mM) and seeded in a 96‐well plate. […] PGE2 and 11β‐PGE2 were extracted by solid‐phase extraction, and PGE2 formation was quantified by RP‐HPLC.^[ [52] ^] […]

## CC(C)c1ccc2c(c1)c(SC(C)(C)C)c(CC(C)(C)C(=O)O)n2Cc1ccc(Cl)cc1 [MK886, reference compound]
  Residual activity of mPGES-1, mean ± SD (%): 33.5 ± 2.1%
